For twelve compounds, inhibition results are on record in ChEMBL document CHEMBL1134881, “3-Pyrroline containing arylacetamides: a novel series of remarkably selective kappa-agonists” (2002).

Amino acid sequences for entries named in this document (tags omitted). A change or cut given only in a name is not applied to a line headed by its entry.
UniProt P34975: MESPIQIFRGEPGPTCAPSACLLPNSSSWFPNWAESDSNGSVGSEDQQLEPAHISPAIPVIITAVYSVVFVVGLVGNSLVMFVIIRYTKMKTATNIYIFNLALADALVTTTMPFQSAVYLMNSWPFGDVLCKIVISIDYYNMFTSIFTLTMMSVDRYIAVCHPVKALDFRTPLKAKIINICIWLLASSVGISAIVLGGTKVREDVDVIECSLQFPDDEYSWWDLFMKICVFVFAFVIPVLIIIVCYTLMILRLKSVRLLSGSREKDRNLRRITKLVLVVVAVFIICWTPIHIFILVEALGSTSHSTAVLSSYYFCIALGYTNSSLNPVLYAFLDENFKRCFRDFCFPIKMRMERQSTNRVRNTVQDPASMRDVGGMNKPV
UniProt P35372, whole entry, looked up: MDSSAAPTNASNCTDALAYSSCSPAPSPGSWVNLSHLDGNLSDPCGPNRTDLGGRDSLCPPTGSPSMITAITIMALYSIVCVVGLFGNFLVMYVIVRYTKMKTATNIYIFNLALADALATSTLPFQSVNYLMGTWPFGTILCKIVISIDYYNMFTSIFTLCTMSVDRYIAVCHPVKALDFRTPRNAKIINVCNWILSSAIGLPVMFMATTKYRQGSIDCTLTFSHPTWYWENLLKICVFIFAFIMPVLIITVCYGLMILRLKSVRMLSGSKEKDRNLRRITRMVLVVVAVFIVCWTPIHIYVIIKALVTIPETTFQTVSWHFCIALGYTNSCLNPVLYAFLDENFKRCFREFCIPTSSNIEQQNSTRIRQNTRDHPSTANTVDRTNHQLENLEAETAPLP

The target of assay [1] is Kappa-type opioid receptor (Rattus norvegicus) (UniProt P34975). Kind of assay: Percent inhibition of [3H]diprenorphine binding in cloned rat Opioid receptor kappa 1 expressed in Sf9 insect cells at a concentration of 10e-6 M.
Assay [2] concerns the target Mu-type opioid receptor (Homo sapiens) (UniProt P35372). Kind of assay: Percent inhibition of [3H]diprenorphine binding in cloned human Opioid receptor mu 1 expressed in Sf9 insect cells at a concentration of 10 *10e-6 M.
Assay [3] shares this target. Kind of assay: Displacement of [3H]diprenorphine in cloned human Opioid receptor mu 1 expressed in Sf9 insect cells at a concentration of 10 *10e-6 M. Background: Displacement assays read how much labelled ligand stays bound in the presence of the test substance.

One may read the inhibition as the change of the read-out against control, counted positive when it falls. Low values mean a weak effect, high ones a strong effect. In the case of `CC(C)[C@@H](CN1CC=CC1)N(C)C(=O)Cc1ccc(F)cc1`, the inhibition in assay [1] came to 37%; in assay [2] it was 46.5%.
As to `CC(C)[C@@H](CN1CC=CC1)N(C)C(=O)Cc1ccc(Cl)cc1`, the results for the inhibition in assay [1] and in assay [2] were 60% and 42%, respectively.
With `CSCC[C@@H](CN1CC=CC1)N(C)C(=O)Cc1ccc(Cl)c(Cl)c1`, the results for the inhibition in assay [1] and in assay [2] were 90% and 11.5%, respectively.
As for `CSCC[C@@H](CN1CC=CC1)N(C)C(=O)Cc1ccc(Cl)cc1`, the inhibition was determined as 64% in assay [1] and 0% in assay [3].
Consider `CSCC[C@@H](CN1CC=CC1)N(C)C(=O)Cc1ccc(Br)cc1`, for which the values for the inhibition in assay [1] and in assay [3] were 80% and 0%, respectively.
With `CC(C)[C@@H](CN1CC=CC1)N(C)C(=O)Cc1ccc(Br)cc1`, the values for the inhibition in assay [1] and in assay [3] were 90% and 0%, respectively.
As to `CSCC[C@@H](CN1CC=CC1)N(C)C(=O)Cc1ccc([N+](=O)[O-])cc1`, the inhibition in assay [3] turned out to be 0%.
Take `COc1ccc(CC(=O)N(C)[C@H](CN2CC=CC2)C(C)C)cc1`: the inhibition amounted to 70% in assay [1] and 13.5% in assay [2].
Take `CC(C)[C@@H](CN1CC=CC1)N(C)C(=O)Cc1ccc([N+](=O)[O-])cc1`: the inhibition in assay [1] was determined as 80%; in assay [2] it was 10.5%.
As to `CSCC[C@@H](CN1CC=CC1)N(C)C(=O)Cc1ccc(F)cc1`, the inhibition in assay [1] was determined as 70%; in assay [3], 0%.
Consider `CC(C)[C@@H](CN1CC=CC1)N(C)C(=O)Cc1ccc(Cl)c(Cl)c1`, for which the inhibition in assay [3] turned out to be 0%.
In the case of `COc1ccc(CC(=O)N(C)[C@@H](CCSC)CN2CC=CC2)cc1`, the inhibition in assay [1] came out at 80%; in assay [3] it was 0%.
